According to paper PMC9561264:

Columns and labels:
[1] = target: hOGG1 (human oxoguanine glycosylase 1), wildtype (human) (UniProt O15527); test: fluorescence polarisation; oxidising conditions (5 uM H2O2); 5 nM Ni-NTA AF488 labelled his6-hOGG1, unlabelled protein titrated (Myc 1.22 nM-2 uM, LSD1 1.38 nM-60 uM, hOGG1 0.24 nM-8 uM); 20 mM Tris-HCl pH 7.6, 200 mM NaCl; 25 C; single Hill fit
[2] = target: hOGG1 (human oxoguanine glycosylase 1), wildtype (human) (UniProt O15527); test: fluorescence polarisation; reducing conditions (5 mM DTT); 5 nM Ni-NTA AF488 labelled his6-hOGG1, unlabelled protein titrated (Myc 1.22 nM-2 uM, LSD1 1.38 nM-60 uM, hOGG1 0.24 nM-8 uM); 20 mM Tris-HCl pH 7.6, 200 mM NaCl; 25 C; single Hill fit

Substance: LSD1 (lysine specific demethylase 1) (from UniProt O60341 1-852) (enzyme; other documents disagree on this pair)
- Kd [1]: 867 nM
- Kd [2]: 754 nM
